Source: US20070213270A1, “PEPTIDE YY FORMULATIONS HAVING INCREASED STABILITY AND RESISTANCE TO MICROBIAL AGENTS” (priority 2004, published 2007)

How the values were obtained:
[1] = in vivo
[2] = tested on: normal, human-derived tracheal/bronchial epithelial cells (EpiAirway™ Tissue Model); test: Tissue permeation assay (EpiAirway tissue model, PYY 3-36 EIA); format: in vitro ADME
Protocol: The experimental procedures for the in vitro tissue studies are described below. The cell line MatTek Corp. (Ashland, Mass.) was the source of normal, human-derived tracheal/bronchial epithelial cells (EpiAirwayTM Tissue Model). The cells were provided as inserts grown to confluent on Millipore […] filters comprised of transparent hydrophilic Teflon (PTFE). The membranes were cultured in 1 mL basal media (phenol red-free and hydrocortisone-free Dulbecco's Modified Eagle's Medium (DMEM)) at 37° C. with 5% CO2 for 24-48 hours before use. Inserts were feed for each day of recovery. Same media was used during testing. Each tissue insert was placed in an individual well containing 1 mL of basal media. On the apical surface of the inserts, 100 ul of test formulation was applied, and the samples were placed on a shaker ( 100 rpm) for 120 min at 37° C. The underlying culture media samples was stored at 2-8° C. until needed. Transepithelial electrical resistance (TEER) was measured before and after the 2-h incubation. Following the incubation, the cell inserts were analyzed for cell viability via the mitochondrial dehydrogenase (MDH) assay. […] (Belmont, Calif.). Samples are diluted appropriate with assay buffer that is provided with the kit. The protocol that comes with the kits will be used.

level of PYY peptide reached [1]: post-prandial physiological levels
effect of change in tonicifier upon in vitro performance [2]: no significant effect
effect of osmolarity upon in vitro performance [2]: significant impact
effect of change in pH upon in vitro performance ([2]; pH 3.8): no impact
Structure (SMILES): CC[C@H](C)[C@H](N)C(=O)N[C@@H](CCCCN)C(=O)N1CCC[C@H]1C(=O)N[C@@H](CCC(=O)O)C(=O)N[C@@H](C)C(=O)N1CCC[C@H]1C(=O)NCC(=O)N[C@@H](CCC(=O)O)C(=O)N[C@@H](CC(=O)O)C(=O)N[C@@H](C)C(=O)N[C@@H](CO)C(=O)N1CCC[C@H]1C(=O)N[C@@H](CCC(=O)O)C(=O)N[C@@H](CCC(=O)O)C(=O)N[C@@H](CC(C)C)C(=O)N[C@@H](CC(N)=O)C(=O)N[C@@H](CCCN=C(N)N)C(=O)N[C@@H](Cc1ccc(O)cc1)C(=O)N[C@@H](Cc1ccc(O)cc1)C(=O)N[C@@H](C)C(=O)N[C@@H](CO)C(=O)N[C@@H](CC(C)C)C(=O)N[C@@H](CCCN=C(N)N)C(=O)N[C@@H](Cc1cnc[nH]1)C(=O)N[C@@H](Cc1ccc(O)cc1)C(=O)N[C@@H](CC(C)C)C(=O)N[C@@H](CC(N)=O)C(=O)N[C@@H](CC(C)C)C(=O)N[C@H](C(=O)N[C@H](C(=O)N[C@@H](CCCN=C(N)N)C(=O)N[C@@H](CCC(N)=O)C(=O)N[C@@H](CCCN=C(N)N)C(=O)N[C@@H](Cc1ccc(O)cc1)C(N)=O)[C@@H](C)O)C(C)C [PYY3-36, PYY(3-36)]
